Like-named read-outs stand apart in the source and are kept apart here.
What was measured:
Assay in all cases: Caliper Kinase Assay
Type in all cases: biochemical
LYNA = LYNA (Homo sapiens (Human), UniProt P07948); settings: ATP at Km, peptide 1.5 uM; read-out: LLE_LYNA (IC50)
CDK2E = CDK2E (Homo sapiens (Human), UniProt P24941); settings: ATP at Km, peptide 1.5 uM; read-out: LLE_CDK2E (IC50)
BTK = BTK (Homo sapiens (Human), UniProt Q06187); settings: ATP at Km, peptide 1.5 uM; read-out: LLE_BTK (IC50)
TYK2 = TYK2 (Homo sapiens (Human), UniProt P29597); settings: ATP at Km, peptide 1.5 uM; read-out: LLE_TYK2_887 (IC50)
JAK3 = JAK3 (Homo sapiens (Human), UniProt P52333); settings: ATP at Km, peptide 1.5 uM; read-out: LLE_JAK3 (IC50)
ITK = ITK (Homo sapiens (Human), UniProt Q08881); settings: ATP at Km, peptide 1.5 uM; read-out: LLE_ITK (IC50)
IRAK-4 = IRAK-4 (Homo sapiens (Human), UniProt Q9NWZ3); settings: ATP at Km, peptide 1.5 uM; read-out: LLE IRAK-4 (IC50)
Protocol: (§1) In addition, compounds of the present invention, such as particular compounds disclosed in the preceding examples, were evaluated for their effectiveness as inhibitors of kinase receptor activity.
(§2) The analyses were performed in U-bottom 384-well plates. The final assay volume was 30 μl prepared from 15 μl additions of enzyme and substrates (fluoresceinated peptide and ATP) and test compounds in assay buffer (20 mM HEPES pH 7.4, 10 mM MgCl2, 0.015% Brij35 and 4 mM DTT). The reaction was initiated by the combination of purified protein kinase with substrates and test compounds. The reaction was incubated at room temperature for 60 min. and terminated by adding 30 μl of 35 mM EDTA to each sample. The reaction mixture was analyzed on the Caliper LABCHIP® 3000 (Caliper, Hopkinton, Mass.) by electrophoretic separation of the fluorescent substrate and phosphorylated product. Inhibition data were calculated by comparison to no enzyme control reactions for 100% inhibition and vehicle-only reactions for 0% inhibition. The ATP was used at a final concentration equivalent to the Km and the peptide substrate concentration was 1.5 μM. […] Compounds were dissolved at 10 mM in dimethylsulfoxide (DMSO) and evaluated at eleven concentrations. IC50 values were derived by non-linear regression analysis.

Chains of the proteins cited; added tags and fusions are not shown. Lines headed by an entry give the natural chain unless they say otherwise; changes in a name come on top.
UniProt P07948, whole entry, species assumed: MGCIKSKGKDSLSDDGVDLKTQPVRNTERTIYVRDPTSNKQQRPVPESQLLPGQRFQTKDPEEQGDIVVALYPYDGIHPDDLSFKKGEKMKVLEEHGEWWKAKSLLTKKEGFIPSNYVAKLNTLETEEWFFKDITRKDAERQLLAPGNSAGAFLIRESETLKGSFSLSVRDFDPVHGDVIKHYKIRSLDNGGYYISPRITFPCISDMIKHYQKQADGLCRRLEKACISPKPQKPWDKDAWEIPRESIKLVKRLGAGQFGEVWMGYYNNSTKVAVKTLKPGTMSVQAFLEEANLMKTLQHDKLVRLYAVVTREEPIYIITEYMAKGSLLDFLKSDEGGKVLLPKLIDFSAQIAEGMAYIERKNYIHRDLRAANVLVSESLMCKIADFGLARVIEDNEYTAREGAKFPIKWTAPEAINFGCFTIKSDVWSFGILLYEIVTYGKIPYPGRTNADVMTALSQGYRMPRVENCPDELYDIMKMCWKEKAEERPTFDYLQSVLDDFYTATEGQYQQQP
UniProt Q06187, whole entry, species assumed: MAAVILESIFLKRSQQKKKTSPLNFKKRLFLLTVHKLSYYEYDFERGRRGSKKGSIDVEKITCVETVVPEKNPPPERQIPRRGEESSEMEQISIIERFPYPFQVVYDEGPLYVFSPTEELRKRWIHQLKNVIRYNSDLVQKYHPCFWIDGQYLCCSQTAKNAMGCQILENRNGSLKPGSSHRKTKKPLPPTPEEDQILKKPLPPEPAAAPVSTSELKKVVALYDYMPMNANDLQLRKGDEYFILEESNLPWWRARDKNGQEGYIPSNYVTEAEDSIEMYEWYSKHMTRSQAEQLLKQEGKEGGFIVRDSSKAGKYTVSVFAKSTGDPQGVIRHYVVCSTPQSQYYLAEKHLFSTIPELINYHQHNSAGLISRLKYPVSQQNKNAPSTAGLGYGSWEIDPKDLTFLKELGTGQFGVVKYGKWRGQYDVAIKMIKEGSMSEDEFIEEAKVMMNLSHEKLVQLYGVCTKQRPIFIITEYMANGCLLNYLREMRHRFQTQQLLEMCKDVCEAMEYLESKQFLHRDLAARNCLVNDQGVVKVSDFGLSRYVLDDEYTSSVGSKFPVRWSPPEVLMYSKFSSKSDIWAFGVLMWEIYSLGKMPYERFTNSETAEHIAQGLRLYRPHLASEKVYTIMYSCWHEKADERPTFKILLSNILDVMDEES
UniProt P29597, whole entry, species assumed: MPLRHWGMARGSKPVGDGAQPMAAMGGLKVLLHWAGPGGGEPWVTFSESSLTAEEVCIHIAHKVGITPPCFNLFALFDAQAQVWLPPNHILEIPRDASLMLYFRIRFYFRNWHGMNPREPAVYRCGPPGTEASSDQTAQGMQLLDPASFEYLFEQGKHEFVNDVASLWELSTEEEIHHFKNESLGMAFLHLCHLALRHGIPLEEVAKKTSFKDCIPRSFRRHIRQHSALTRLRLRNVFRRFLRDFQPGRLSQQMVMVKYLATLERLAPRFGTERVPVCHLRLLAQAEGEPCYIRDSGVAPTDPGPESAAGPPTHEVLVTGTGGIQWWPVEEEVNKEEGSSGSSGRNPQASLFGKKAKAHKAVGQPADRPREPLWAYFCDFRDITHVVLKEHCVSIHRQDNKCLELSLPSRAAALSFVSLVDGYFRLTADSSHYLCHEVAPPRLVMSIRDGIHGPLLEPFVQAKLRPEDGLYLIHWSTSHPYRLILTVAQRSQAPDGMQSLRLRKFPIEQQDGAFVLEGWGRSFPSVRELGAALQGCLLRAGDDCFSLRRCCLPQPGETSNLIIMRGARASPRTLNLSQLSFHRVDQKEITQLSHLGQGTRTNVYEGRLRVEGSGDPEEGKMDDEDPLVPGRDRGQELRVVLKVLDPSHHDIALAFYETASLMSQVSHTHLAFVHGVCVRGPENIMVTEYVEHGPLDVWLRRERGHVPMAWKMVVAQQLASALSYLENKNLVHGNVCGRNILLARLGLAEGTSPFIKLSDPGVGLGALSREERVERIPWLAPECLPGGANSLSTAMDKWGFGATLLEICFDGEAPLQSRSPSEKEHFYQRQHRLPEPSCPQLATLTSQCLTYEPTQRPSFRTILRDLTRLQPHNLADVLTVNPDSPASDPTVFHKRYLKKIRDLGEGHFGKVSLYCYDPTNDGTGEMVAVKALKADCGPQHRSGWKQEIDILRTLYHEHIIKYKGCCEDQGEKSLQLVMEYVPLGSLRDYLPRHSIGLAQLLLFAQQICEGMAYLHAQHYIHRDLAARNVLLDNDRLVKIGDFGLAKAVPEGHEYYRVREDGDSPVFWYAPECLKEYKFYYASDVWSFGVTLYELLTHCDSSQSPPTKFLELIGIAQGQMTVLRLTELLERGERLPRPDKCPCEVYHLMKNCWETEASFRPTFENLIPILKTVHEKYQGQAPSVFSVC
UniProt Q08881, whole entry, species assumed: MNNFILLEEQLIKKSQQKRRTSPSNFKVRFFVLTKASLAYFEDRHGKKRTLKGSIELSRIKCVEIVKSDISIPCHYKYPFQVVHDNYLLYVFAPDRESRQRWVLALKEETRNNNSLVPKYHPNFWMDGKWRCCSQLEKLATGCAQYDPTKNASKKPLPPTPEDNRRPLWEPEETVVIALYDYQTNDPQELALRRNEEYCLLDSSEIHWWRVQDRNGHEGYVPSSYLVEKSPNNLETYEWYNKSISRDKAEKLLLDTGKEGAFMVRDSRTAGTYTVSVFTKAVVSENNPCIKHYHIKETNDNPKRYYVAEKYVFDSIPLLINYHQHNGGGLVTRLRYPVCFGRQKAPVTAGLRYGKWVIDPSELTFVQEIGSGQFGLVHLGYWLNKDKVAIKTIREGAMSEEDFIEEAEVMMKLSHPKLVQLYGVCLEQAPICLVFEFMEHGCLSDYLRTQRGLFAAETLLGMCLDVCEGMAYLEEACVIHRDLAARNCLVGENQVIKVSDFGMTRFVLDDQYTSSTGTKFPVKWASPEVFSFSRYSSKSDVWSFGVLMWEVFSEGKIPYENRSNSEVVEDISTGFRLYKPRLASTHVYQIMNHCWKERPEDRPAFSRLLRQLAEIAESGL
UniProt P19784, whole entry, species assumed: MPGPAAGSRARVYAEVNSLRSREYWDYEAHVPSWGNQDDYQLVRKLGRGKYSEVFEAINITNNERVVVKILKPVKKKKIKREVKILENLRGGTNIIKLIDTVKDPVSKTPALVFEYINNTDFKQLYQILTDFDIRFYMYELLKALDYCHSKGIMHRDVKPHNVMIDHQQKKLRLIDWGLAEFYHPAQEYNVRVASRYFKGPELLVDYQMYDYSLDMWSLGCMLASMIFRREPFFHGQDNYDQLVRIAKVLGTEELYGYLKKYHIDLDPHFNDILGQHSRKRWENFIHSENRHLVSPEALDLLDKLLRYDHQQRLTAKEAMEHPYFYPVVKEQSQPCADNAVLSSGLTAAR
UniProt P51813, whole entry, species assumed: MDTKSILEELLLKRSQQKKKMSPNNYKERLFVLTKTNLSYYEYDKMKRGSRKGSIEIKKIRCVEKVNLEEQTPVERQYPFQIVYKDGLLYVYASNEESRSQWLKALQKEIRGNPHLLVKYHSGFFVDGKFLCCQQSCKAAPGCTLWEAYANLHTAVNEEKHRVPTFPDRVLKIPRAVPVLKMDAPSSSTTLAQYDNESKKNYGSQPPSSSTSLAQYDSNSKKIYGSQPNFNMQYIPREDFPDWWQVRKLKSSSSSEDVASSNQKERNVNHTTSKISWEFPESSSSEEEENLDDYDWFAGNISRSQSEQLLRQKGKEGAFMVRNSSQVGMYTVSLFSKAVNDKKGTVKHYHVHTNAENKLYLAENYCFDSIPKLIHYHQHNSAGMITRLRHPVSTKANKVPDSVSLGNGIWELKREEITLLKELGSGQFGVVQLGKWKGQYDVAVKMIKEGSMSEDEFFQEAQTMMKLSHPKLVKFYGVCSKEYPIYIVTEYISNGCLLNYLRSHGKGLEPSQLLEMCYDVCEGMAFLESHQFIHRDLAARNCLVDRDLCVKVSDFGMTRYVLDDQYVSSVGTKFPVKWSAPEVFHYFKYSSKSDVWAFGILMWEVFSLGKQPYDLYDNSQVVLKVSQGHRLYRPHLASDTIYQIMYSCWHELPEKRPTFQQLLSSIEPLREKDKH
UniProt P06239, whole entry, species assumed: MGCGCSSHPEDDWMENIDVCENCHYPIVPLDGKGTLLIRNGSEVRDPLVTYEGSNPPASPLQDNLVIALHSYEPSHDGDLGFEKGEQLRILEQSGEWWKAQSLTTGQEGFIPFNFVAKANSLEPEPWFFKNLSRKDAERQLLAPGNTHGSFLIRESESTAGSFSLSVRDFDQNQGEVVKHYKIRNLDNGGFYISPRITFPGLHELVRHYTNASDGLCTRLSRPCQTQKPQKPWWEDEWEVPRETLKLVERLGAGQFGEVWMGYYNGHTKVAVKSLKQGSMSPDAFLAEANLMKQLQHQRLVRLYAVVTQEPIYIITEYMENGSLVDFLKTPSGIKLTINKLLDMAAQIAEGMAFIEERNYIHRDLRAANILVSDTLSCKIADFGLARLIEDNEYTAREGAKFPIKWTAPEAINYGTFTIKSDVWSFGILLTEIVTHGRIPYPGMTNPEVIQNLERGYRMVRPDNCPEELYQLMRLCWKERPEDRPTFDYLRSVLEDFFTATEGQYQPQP
UniProt P42680: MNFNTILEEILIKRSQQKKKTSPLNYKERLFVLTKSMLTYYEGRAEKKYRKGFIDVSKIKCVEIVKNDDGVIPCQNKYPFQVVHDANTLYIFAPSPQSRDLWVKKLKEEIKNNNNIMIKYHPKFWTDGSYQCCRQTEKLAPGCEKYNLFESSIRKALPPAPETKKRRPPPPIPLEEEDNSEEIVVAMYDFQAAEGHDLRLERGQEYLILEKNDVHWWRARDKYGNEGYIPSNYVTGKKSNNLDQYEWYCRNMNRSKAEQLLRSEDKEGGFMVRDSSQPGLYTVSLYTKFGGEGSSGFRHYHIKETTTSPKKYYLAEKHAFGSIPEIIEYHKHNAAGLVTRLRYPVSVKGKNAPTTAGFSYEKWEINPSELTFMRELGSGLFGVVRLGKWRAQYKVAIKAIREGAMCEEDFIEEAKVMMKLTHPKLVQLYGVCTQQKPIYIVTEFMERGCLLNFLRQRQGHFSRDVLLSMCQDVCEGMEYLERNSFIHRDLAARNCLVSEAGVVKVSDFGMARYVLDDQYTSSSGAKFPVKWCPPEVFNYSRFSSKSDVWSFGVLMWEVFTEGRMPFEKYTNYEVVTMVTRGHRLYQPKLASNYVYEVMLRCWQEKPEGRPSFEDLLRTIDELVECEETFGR
UniProt Q14164, whole entry, species assumed: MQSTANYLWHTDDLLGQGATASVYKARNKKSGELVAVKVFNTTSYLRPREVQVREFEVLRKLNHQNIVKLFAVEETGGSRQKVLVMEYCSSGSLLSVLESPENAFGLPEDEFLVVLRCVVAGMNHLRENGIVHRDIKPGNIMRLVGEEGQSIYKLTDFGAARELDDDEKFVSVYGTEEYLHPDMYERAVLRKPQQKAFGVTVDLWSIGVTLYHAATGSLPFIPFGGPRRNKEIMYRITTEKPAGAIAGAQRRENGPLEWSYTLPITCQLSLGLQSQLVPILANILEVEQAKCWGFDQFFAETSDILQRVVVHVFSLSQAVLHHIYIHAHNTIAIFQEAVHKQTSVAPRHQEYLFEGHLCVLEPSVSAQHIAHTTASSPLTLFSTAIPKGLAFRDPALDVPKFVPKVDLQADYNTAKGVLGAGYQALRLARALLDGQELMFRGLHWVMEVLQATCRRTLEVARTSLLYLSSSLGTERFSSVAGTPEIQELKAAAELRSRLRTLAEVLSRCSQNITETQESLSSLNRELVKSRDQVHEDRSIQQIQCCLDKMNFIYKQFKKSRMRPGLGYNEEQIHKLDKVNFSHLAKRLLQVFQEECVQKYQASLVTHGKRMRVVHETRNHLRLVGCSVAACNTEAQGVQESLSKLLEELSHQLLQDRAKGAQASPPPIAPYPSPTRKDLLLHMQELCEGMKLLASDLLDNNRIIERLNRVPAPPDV
UniProt P51617, whole entry, species assumed: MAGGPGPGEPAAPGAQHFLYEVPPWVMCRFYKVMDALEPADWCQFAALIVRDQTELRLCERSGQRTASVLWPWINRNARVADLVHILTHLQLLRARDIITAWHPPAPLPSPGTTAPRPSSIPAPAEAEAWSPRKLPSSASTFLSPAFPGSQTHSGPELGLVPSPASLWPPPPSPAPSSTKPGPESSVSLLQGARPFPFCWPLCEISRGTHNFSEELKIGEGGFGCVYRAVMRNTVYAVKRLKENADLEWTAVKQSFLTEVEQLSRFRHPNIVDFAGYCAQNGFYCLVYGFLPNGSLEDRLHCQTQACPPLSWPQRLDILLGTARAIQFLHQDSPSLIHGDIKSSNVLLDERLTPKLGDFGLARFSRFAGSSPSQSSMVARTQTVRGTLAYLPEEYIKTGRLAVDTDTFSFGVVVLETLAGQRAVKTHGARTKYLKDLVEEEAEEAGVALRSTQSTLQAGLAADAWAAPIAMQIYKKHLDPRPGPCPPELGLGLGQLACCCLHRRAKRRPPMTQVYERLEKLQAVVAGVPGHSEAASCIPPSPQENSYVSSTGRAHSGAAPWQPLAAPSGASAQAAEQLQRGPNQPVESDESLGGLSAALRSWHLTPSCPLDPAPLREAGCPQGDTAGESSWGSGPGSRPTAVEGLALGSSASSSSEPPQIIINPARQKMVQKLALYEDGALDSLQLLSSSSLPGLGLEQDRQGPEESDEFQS

GSK3B = GSK3B (Homo sapiens (Human), UniProt P49841); settings: ATP at Km, peptide 1.5 uM; read-out: LLE GSK3B (IC50)
Protocol: as §1, §2

CK2A2 = CK2A2 (Homo sapiens (Human), UniProt P19784); settings: ATP at Km, peptide 1.5 uM; read-out: LLE_CK2A2 (IC50)
Excerpt: IC50 values were derived by non-linear regression analysis.

BMX = BMX (Homo sapiens (Human), UniProt P51813); settings: ATP at Km, peptide 1.5 uM; read-out: LLE_BMX (IC50)
Lck = Lck (Homo sapiens (Human), UniProt P06239); settings: ATP at Km, peptide 1.5 uM; read-out: LLE_Lck (IC50)
TEC = TEC (Homo sapiens (Human), UniProt P42680); settings: ATP at Km, peptide 1.5 uM; read-out: LLE_TEC (IC50)
IKKE = IKKE (Homo sapiens (Human), UniProt Q14164); settings: ATP at Km, peptide 1.5 uM; read-out: LLE IKKE (IC50)
Protocol: as §1, §2

IRAK1 = IRAK1 (Homo sapiens (Human), UniProt P51617); settings: ATP at Km, peptide 1.5 uM
Protocol: as §1, §2

IC50 (TEC) [µM]	IC50 (IKKE) [µM]	IC50 (IRAK1; first section of Table 4, read-out: LLE IRAK1 (IC50)) [µM]	IC50 (IRAK1; second section of Table 4, read-out: LLE_IRAK1 (IC50)) [µM]	Structure (SMILES)	IC50 (LYNA) [µM]	IC50 (CDK2E) [µM]	IC50 (BTK) [µM]	IC50 (TYK2) [µM]	IC50 (JAK3) [µM]	IC50 (ITK) [µM]	IC50 (IRAK-4) [µM]	IC50 (GSK3B) [µM]	IC50 (CK2A2) [µM]	IC50 (BMX) [µM]	IC50 (Lck) [µM]
–	–	–	–	NS(=O)(=O)c1cncc(-c2nc(NCc3ccccn3)c3c(-c4ccccc4)cccc3n2)c1 [Example 7, 5-(5-Phenyl-4-(pyridin-2-ylmethylamino)quinazolin-2-yl)pyridine-3-sulfonamide]	50	≥ 50	≥ 50	50	≥ 50	≥ 50	≥ 50	≥ 50	50	≥ 50	≥ 50
50	50	50	50	c1ccc(-c2cccc3nc(-c4cncnc4)nc(NCc4ccccn4)c23)cc1 [Example 1, 5-Phenyl-N-(pyridin-2-ylmethyl)-2-(pyrimidin-5-yl)quinazolin-4-amine]	–	–	–	–	–	–	50	50	–	–	–
